OPERA 2.9 data: vapor pressure values

Source: data files of OPERA 2.9 (Mansouri et al.), github.com/kmansouri/OPERA.

Vapor pressure is log10 of mmHg; the set covers 15 to 30 °C, mostly 20 to 25 °C.
The databases behind each value are named after "via".

compound,log vapor pressure (log10 mmHg),via
CC(C)NO,-0.292,eChemPortal
Brc1cccc(Oc2ccccc2)c1,-3.016,OCHEM
CNC(=O)N(c1ccccc1)c1ccccc1,-7.25,eChemPortal
CCCCCCOC(=O)c1ccccc1O,-3.238,eChemPortal
CC(=O)N[C@@H](Cc1cc([N+](=O)[O-])c(O)c([N+](=O)[O-])c1)C(=O)O,-4.912,eChemPortal
CCN(CC)c1ccc(N=Nc2c(C#N)cc([N+](=O)[O-])cc2[N+](=O)[O-])c(NC(C)=O)c1,-12.78,eChemPortal
OCCCNCCO,-3.694,eChemPortal
COC(=O)c1ccc(CNS(C)(=O)=O)cc1S(=O)(=O)NC(=O)Nc1nc(OC)cc(OC)n1,-10.08,OCHEM
CCOC(=O)C1=NOC(c2ccccc2)(c2ccccc2)C1,-7.782,eChemPortal
O=C=NCCCCCCn1c(=O)n(CCCCCCN=C=O)c(=O)n(CCCCCCN=C=O)c1=O,-4.935,eChemPortal
CCN(CC)C1=C[C@@H]2Oc3cc(N(CC)CC)c(C)cc3C(c3ccccc3C(=O)OC)=C2C=C1C,-5.274,eChemPortal
COc1c(Cl)cccc1Cl,-4.085,OCHEM
Cc1cccc(Cc2ccccc2)c1Cc1ccccc1,-5.018,eChemPortal
CC(=O)OCCC(C)CC=O (configuration not stated),-1.62,eChemPortal
CCOC(C)OCCc1ccccc1 (configuration not stated),-1.634,eChemPortal
C=C[C@]1(C)C[C@@H](OC(=O)CO)[C@]2(C)[C@H](C)CC[C@]3(CCC(=O)[C@H]32)[C@@H](C)[C@@H]1O,-9.795,eChemPortal
Clc1cc(Cl)cc(-c2c(Cl)ccc(Cl)c2Cl)c1,-4.595,OCHEM
C=CC(=O)OCCCCCCc1ccc(OC(=O)[C@H]2CC[C@H](C(=O)Oc3ccc(CCCCCCOC(=O)C=C)cc3)CC2)cc1,-9.319,eChemPortal
O=C(c1ccccc1)C1CCCCC1,-2.293,eChemPortal
Cc1ccc(N=Nc2c(O)ccc3ccccc23)c(C)c1,-7.932,eChemPortal
Cc1cc(O)n2ncnc2n1,-9.907,eChemPortal
O=CC(=O)[O-].[Na+],-8.678,eChemPortal
O=C(O)Cc1cccc2ccccc12,-5.021,OCHEM
OC1CCc2[nH]c3ccccc3c2C1 (configuration not stated),-6.216,eChemPortal
CCS(=O)(=O)c1nnc(N(C)C(=O)NC)s1,-10.22,OCHEM
OCCOCCOc1ccccc1,-3.046,eChemPortal
CC(C)CC(C)c1ccccc1N (configuration not stated),-4.116,eChemPortal
Cc1c(C)c2c(c(C)c1OC(=O)c1cccnc1)CCC(C)(CCCC(C)CCCC(C)CCCC(C)C)O2 (configuration not stated),-7.881,eChemPortal
NCCCC(O)(P(=O)(O)O)P(=O)(O)O.O,-8.134,eChemPortal
CCCCNC(=S)N(CCCC)CCCC,-4.786,eChemPortal
CC(C)(CS(=O)(=O)[O-])NC(=O)CCSCCC(F)(F)C(F)(F)C(F)(F)C(F)(F)C(F)(F)C(F)(F)F.[Na+],-4.614,eChemPortal
C[SiH](C)O[SiH](C)C,2.051,eChemPortal
O=C=Nc1ccc(Cc2ccccc2N=C=O)cc1,-4.979,eChemPortal
CCCCCC/C=C/C(=O)OC,-0.917,eChemPortal
CC1CCc2cc(F)cc3c(=O)c(C(=O)O)cn1c23 (configuration not stated),-6.606,OCHEM
C1=Nc2ccccc2OCC2(COc3ccccc3N=1)COc1ccccc1N=C=Nc1ccccc1OC2 (configuration not stated),-10,eChemPortal
Cc1cc(O)ccc1O,-4.684,eChemPortal
Clc1ccc(Cl)c(-c2c(Cl)cc(Cl)c(Cl)c2Cl)c1,-4.585,OCHEM
COC(=O)CCc1cc(C(C)(C)C)c(O)c(C(C)(C)C)c1,-5.337,eChemPortal
CC1(C)CC(N)CC(C)(C)N1,-0.581,eChemPortal

Extract of 6 entries:

{"smiles": "OC1CCc2[nH]c3ccccc3c2C1", "stereo": "configuration not stated", "log vapor pressure (log10 mmHg)": "-6.216", "via": "eChemPortal"}
{"smiles": "Clc1ccc(Cl)c(-c2c(Cl)cc(Cl)c(Cl)c2Cl)c1", "log vapor pressure (log10 mmHg)": "-4.585", "via": "OCHEM"}
{"smiles": "CCOC(C)OCCc1ccccc1", "stereo": "configuration not stated", "log vapor pressure (log10 mmHg)": "-1.634", "via": "eChemPortal"}
{"smiles": "COC(=O)CCc1cc(C(C)(C)C)c(O)c(C(C)(C)C)c1", "log vapor pressure (log10 mmHg)": "-5.337", "via": "eChemPortal"}
{"smiles": "Cc1ccc(N=Nc2c(O)ccc3ccccc23)c(C)c1", "log vapor pressure (log10 mmHg)": "-7.932", "via": "eChemPortal"}
{"smiles": "CCCCCC/C=C/C(=O)OC", "log vapor pressure (log10 mmHg)": "-0.917", "via": "eChemPortal"}

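The numbers are reported measurements, compiled and curated for the OPERA QSAR suite. The files give a single number for a compound and property, which may rest on several reports. Method, purity and exact conditions of the single measurements are not given. A value may pool stereoisomers or salt forms, and the file does not say which form was measured. Unmarked limits or estimates from the upstream databases cannot be ruled out.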